Data reported in PMC7047575 (The AAPS journal, 2018).
Where “and” joins values, the source holds several entries; their conditions need not be identical. Identical values can stand only once.

By UniProt entry, the sequences of proteins in these tests, tags left out. Where a name states a change or a piece, a line headed by the entry shows the natural chain unless it says otherwise. Residues count along the entry.
UniProt Q01827, whole entry: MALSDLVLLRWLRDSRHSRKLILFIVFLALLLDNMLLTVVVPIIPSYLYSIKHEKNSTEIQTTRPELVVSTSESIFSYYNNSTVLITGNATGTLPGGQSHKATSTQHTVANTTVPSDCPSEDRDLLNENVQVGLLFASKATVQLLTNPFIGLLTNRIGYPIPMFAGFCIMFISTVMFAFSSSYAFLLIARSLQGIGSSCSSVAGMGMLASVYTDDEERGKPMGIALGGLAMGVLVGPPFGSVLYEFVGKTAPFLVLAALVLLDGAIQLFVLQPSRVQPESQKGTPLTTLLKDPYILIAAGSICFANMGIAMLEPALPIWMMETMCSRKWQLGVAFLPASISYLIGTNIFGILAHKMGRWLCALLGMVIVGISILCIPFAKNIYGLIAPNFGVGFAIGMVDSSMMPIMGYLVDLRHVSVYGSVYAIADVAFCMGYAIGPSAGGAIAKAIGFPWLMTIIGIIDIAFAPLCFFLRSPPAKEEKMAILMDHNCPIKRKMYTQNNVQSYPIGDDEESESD
UniProt P23977, whole entry: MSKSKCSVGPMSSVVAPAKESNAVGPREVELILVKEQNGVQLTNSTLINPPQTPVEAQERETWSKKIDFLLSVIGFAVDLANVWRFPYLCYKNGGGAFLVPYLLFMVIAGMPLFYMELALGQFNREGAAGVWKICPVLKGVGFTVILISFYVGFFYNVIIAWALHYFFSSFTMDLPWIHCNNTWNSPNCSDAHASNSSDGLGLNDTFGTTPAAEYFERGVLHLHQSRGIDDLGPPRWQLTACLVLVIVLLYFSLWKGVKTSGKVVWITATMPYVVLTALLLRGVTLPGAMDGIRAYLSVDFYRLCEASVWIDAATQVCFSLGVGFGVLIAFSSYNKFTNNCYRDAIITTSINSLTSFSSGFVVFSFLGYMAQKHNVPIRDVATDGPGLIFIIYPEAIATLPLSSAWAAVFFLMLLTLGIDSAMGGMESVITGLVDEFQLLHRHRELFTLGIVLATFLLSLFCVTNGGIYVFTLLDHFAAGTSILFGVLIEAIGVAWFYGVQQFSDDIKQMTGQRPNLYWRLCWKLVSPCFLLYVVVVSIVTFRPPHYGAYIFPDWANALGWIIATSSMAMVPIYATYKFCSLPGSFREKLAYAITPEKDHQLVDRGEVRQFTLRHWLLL
UniProt P31652, whole entry: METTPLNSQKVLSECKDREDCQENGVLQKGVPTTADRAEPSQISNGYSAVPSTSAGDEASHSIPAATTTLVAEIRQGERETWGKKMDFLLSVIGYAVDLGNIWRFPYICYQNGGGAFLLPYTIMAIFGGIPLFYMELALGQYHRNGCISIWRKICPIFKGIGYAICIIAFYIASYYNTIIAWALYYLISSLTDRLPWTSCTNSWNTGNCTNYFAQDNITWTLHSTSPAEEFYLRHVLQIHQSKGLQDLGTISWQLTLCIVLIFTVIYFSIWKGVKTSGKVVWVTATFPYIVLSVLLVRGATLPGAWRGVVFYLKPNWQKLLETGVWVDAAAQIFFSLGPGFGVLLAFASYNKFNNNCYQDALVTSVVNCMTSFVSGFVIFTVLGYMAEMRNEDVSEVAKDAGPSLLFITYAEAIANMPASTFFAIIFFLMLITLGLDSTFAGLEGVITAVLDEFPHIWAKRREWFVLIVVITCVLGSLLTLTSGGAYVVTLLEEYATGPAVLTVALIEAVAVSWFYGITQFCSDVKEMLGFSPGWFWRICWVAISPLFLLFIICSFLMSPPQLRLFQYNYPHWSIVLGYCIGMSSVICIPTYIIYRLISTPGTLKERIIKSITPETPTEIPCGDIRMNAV
UniProt P09483, 31-630: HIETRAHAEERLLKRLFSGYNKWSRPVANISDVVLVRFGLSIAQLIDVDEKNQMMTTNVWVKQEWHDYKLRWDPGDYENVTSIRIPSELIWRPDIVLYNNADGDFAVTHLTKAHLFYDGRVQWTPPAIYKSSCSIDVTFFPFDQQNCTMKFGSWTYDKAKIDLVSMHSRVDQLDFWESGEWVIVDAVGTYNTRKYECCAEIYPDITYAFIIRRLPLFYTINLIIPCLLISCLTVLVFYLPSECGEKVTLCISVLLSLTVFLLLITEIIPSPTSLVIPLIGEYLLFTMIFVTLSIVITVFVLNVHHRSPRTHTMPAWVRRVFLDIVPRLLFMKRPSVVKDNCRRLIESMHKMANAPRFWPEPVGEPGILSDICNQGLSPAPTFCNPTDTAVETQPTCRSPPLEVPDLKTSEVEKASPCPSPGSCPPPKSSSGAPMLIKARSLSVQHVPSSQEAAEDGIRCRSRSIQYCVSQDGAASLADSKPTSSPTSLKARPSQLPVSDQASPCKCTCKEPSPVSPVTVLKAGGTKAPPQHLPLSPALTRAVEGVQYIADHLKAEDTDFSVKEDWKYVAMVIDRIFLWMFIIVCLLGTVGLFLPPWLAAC
UniProt P12390, 25-500: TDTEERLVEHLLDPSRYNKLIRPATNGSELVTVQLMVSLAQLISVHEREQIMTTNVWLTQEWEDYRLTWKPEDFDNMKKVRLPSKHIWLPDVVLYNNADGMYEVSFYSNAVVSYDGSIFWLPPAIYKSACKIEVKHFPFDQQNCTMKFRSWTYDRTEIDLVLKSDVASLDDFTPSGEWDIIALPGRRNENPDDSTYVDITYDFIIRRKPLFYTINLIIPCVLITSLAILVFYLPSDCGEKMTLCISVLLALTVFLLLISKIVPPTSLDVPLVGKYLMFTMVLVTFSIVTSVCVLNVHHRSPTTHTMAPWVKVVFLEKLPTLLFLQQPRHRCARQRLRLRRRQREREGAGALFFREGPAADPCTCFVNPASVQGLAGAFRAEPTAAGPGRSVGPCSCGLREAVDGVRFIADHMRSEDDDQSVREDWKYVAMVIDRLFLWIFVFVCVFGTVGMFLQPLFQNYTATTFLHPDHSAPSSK
UniProt Q12809: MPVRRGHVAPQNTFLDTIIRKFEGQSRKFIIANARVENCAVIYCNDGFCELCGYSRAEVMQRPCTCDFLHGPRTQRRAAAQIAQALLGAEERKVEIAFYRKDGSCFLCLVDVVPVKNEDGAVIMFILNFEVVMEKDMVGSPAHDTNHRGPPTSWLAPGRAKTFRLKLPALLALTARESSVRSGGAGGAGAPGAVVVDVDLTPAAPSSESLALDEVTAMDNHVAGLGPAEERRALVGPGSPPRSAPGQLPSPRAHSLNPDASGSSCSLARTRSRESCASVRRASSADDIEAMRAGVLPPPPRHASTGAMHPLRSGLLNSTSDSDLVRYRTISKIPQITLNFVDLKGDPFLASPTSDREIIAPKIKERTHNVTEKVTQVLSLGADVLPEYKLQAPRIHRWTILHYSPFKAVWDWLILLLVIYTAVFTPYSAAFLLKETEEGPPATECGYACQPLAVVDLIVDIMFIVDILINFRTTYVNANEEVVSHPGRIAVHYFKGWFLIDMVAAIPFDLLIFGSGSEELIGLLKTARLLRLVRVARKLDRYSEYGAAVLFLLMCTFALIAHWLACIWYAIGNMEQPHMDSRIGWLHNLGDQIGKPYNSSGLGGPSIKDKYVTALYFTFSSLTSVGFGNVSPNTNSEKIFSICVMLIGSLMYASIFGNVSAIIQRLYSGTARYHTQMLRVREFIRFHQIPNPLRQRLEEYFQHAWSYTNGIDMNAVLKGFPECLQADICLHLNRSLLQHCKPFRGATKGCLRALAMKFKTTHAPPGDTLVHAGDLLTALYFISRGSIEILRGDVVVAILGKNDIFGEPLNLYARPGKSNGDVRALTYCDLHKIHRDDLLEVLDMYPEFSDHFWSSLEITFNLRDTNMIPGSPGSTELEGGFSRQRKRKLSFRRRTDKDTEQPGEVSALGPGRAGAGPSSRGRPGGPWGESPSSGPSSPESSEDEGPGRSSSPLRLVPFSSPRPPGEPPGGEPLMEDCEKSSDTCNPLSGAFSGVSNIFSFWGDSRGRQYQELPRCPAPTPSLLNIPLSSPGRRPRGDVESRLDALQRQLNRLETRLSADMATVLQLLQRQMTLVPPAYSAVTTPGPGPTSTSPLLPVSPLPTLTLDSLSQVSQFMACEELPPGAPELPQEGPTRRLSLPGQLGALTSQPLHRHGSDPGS

What was measured:
[1] = biological target: VMAT2 (Rattus norvegicus, UniProt Q01827); experiment: Vesicular [3H]DA uptake, rat striatal synaptic vesicles; type: biochemical; conditions: overall statement
[2] = biological target: DAT (Rattus norvegicus, UniProt P23977); experiment: Synaptosomal [3H]DA uptake, rat striatal synaptosomes; type: biochemical; conditions: ratio of Ki values
[3] = biological target: SERT (Rattus norvegicus, UniProt P31652); experiment: Synaptosomal [3H]5-HT uptake, rat striatal synaptosomes; type: biochemical; conditions: ratio of Ki values
[4] = biological target: α4β2 nAChRs (Rattus norvegicus, UniProt P09483+P12390); experiment: [3H]NIC binding to rat brain membranes; conditions: discussion statement
[5] = biological target: hERG channels (Homo sapiens, UniProt Q12809); experiment: [3H]Dofetilide binding to hERG channels on HEK-293 cell membranes; conditions: discussion statement
[6] = biological target: hERG channels (selectivity for VMAT2 over hERG) (Homo sapiens, UniProt Q12809); experiment: as above; conditions: human, pH 7.4
[7] = test system: METH-sensitized locomotor activity; experiment: METH-induced hyperactivity in METH-sensitized rats, GZ-11610 s.c.; type: in vivo, rat; conditions: Tukey's test, p < 0.05
[8] = test system: METH-sensitized locomotor activity; experiment: METH-induced hyperactivity in METH-sensitized rats, GZ-11610 oral; type: in vivo, rat
[9] = decrease of METH-sensitized locomotor activity

## COc1ccc(CCCN[C@H](C)Cc2ccccc2)cc1 [GZ-11610, R-3-(4-methoxyphenyl)-N-(1-phenylpropan-2-yl)propan-1-amine]
[1]
  selectivity for VMAT2 over DAT, SERT, hERG, and α4β2 and α7 nAChRs: greater than two-orders of magnitude
[2]
  selectivity for VMAT2 over DAT: 290 fold and 288 fold
[3]
  selectivity for VMAT2 over SERT: 637 fold
[4]
  selectivity for VMAT2 over nicotinic receptor subtypes (α4β2 and α7): greater than 4 orders of magnitude
[5]
  selectivity for VMAT2 over hERG: 4 orders of magnitude
[6]
  selectivity ratio at 60 min: > 1000
[7]
  doses different from vehicle in the METH group (reduced distance traveled): 3 to 30 mg/kg
[8]; [9]
  dose required following oral relative to s.c. administration: approximately 10 fold
  maximal effect after oral administration relative to s.c. administration: about 50%
[8]; oral, Tukey's test, p < 0.05
  doses different from vehicle in the METH group (reduced distance traveled): 56 mg/kg and 56 to 300 mg/kg
